Molecular target: Ct-AChBP (Capitella teleta, UniProt I6L8L2)
Assay: biochemical
Format: binding

Sequences of proteins named here, by UniProt entry; tags and fusion partners are left off. A change or cut given only in a name is not applied to a line headed by its entry.
UniProt I6L8L2: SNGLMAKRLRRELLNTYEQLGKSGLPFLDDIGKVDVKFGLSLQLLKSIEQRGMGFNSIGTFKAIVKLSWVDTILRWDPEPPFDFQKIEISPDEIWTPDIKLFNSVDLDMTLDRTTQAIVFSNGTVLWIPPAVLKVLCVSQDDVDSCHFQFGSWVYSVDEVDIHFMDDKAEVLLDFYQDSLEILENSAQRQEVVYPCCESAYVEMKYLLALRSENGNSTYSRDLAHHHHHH

## CN1CCC[C@H]1c1cccnc1 [compound 1, nicotine, reference compound]
  Ki: 496 ± 30 nM

Reference: publication PMC3464052 (Journal of medicinal chemistry, 2012)
